Two molecules from patent publication US9580430B2, “9H-pyrimido[4,5-B]indoles and related analogs as BET bromodomain inhibitors” (THE REGENTS OF THE UNIVERSITY OF MICHIGAN, priority 2014, dated 2017) can be followed below.

The target of one assay is recombinant BRD4 BD2 (Homo sapiens, UniProt O60885). Briefly: Competitive fluorescence-polarization (FP) binding assay, BRD4 BD2. The conditions noted are these: read-out: IC50 (nM) BRD4 BD2, protein 6 nM, probe 1.5 nM, tested form: TFA salt.
Another assay has as its target recombinant BRD4 BD1 (Homo sapiens, UniProt O60885). As to the kind of experiment: Competitive fluorescence-polarization (FP) binding assay, BRD4 BD1. To be noted: read-out: IC50 (nM) BRD4 BD1, protein 10 nM, probe 1.5 nM, tested form: TFA salt.

Structures are written as SMILES.

Consider `COc1cc2c(cc1-c1c(C)noc1C)[nH]c1nc(C)nc(Sc3ccccc3Cl)c12`, for which the IC50 at recombinant BRD4 BD2 and on recombinant BRD4 BD1 was more than 1000 nM in each case.
Regarding `COc1cc2c(cc1-c1c(C)noc1C)[nH]c1nc(C)nc(Sc3cccc(Cl)c3)c12`, the IC50 on recombinant BRD4 BD2 and on recombinant BRD4 BD1 was more than 1000 nM throughout.
